The target in one assay is CpCDPK1 (Cryptosporidium parvum (strain Iowa II), UniProt A3FQ16). Put plainly: biochemical. The note with it: Table 1; KinaseGlo, Syntide 2 peptide substrate.
Another assay addresses ALK (Homo sapiens (Human), UniProt Q9UM73). Briefly: Kinase panel selectivity: ALK. The class given is biochemical.
The next assay addresses Erk2 (Homo sapiens (Human), UniProt P28482). Put plainly: Kinase panel selectivity: Erk2. The assay is classed as biochemical.
In a further assay the target is Src (Homo sapiens (Human), UniProt P12931). Briefly: biochemical. The note with it: Enzyme Inhibition (IC50, μM) SrcKD, Table 4.

The chains behind the UniProt entries cited, without tags or fusion partners. Where a name states a change or a piece, a line headed by the entry shows the natural chain unless it says otherwise. Residues count along the entry.
UniProt A3FQ16, 1-538: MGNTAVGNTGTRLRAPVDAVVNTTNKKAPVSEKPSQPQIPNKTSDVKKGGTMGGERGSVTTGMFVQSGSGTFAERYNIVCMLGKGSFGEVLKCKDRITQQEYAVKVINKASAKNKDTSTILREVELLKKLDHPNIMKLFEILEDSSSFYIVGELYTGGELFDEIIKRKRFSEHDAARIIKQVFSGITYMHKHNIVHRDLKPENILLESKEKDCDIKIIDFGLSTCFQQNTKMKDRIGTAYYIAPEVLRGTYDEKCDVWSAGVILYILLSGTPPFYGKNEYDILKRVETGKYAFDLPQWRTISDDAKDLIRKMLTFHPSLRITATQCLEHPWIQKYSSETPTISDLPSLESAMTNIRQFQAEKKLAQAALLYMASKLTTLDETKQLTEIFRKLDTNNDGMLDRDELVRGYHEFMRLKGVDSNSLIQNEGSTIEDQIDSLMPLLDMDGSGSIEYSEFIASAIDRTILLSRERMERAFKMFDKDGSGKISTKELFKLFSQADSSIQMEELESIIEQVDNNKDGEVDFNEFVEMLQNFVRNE
UniProt Q9UM73, 19-1620, species assumed: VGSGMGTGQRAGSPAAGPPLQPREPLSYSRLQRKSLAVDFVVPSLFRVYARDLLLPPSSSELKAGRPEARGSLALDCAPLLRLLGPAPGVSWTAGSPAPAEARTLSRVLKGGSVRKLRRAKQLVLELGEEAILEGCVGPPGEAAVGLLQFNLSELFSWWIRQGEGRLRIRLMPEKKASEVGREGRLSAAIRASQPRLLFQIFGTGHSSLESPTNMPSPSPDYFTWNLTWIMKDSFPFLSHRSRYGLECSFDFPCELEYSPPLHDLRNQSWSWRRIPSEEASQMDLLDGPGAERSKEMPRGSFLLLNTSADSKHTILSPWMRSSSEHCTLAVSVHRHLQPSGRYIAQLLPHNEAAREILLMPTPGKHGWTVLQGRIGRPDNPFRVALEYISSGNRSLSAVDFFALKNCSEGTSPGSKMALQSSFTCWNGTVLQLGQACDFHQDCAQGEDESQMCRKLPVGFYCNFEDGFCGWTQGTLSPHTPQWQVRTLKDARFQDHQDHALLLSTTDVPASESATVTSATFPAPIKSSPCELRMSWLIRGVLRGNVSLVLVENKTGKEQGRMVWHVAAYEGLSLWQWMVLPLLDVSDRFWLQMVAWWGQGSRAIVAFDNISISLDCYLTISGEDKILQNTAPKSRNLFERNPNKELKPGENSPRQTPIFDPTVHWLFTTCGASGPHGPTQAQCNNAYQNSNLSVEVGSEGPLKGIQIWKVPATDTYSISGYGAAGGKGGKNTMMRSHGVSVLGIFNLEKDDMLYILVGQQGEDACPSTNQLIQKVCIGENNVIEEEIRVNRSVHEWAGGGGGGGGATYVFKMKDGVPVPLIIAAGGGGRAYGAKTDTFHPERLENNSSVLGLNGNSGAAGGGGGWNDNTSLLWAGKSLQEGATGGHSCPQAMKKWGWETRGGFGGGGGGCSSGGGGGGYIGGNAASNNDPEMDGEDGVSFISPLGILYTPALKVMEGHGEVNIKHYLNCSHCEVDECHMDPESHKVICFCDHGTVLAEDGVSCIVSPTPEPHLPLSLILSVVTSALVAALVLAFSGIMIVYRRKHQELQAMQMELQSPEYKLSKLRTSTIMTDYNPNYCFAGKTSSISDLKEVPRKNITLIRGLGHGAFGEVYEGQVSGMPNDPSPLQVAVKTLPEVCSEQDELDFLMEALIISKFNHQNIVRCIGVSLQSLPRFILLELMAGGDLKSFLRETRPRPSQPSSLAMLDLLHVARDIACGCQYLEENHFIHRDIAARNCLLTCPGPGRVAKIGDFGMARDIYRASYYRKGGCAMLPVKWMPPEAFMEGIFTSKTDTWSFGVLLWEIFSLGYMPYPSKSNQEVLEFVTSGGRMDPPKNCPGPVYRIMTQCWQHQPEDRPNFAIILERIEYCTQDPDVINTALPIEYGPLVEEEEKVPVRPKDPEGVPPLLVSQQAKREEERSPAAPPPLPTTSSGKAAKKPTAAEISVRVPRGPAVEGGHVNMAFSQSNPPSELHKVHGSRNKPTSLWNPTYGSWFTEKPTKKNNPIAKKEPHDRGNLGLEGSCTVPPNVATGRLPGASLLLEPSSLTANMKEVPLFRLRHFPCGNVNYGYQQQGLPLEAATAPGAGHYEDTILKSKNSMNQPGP
UniProt P28482, whole entry, looked up, species assumed: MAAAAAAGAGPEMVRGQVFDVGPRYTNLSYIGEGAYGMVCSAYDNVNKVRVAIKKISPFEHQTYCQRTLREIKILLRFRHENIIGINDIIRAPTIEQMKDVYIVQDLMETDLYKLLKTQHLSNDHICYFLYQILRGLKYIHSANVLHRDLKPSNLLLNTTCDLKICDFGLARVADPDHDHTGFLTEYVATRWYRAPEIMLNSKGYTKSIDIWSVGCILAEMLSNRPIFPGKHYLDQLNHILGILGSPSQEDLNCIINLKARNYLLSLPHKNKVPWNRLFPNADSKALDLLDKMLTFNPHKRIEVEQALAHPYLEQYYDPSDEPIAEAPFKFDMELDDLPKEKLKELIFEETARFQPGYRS
UniProt P12931: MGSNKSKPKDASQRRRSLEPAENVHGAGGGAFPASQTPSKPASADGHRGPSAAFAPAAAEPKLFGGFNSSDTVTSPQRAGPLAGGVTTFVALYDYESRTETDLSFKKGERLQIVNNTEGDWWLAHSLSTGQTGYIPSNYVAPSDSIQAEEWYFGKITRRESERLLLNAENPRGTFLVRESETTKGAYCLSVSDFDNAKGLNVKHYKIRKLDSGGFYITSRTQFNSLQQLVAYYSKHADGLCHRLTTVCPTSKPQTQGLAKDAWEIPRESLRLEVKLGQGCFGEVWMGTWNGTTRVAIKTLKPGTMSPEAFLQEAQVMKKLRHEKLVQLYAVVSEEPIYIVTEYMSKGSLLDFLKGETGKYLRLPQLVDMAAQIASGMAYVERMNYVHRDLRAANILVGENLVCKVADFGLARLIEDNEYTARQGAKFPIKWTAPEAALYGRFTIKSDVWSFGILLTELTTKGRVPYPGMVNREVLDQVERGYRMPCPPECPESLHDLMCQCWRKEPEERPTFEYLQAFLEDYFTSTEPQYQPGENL

SMILES strings stand for the structures.

The IC50 is the concentration needed to halve the response being measured.

The compound `CCOc1ccc2cc(-c3nn(CC4CCN(C)CC4)c4ncnc(N)c34)ccc2c1` [Compound 9, 3-(6-ethoxynaphthalen-2-yl)-1-((1-methylpiperidin-4-yl)methyl)-1H-pyrazolo[3,4-d]pyrimidin-4-amine, reference compound] gave an IC50 against CpCDPK1 of 1 nM. At CpCDPK1, `Cc1oc2ccccc2c1-c1nn(C(C)(C)C)c(N)c1C(N)=O` [Compound 27, 5-amino-1-(tert-butyl)-3-(2-methylbenzofuran-3-yl)-1H-pyrazole-4-carboxamide] came in with an IC50 of 2300 nM. With `Cn1nc(N)c2ccc(-c3nn(C(C)(C)C)c(N)c3C(N)=O)cc21` [Compound 29, 3-(3-amino-1-methyl-1H-indazol-6-yl)-1-(tert-butyl)-1H-pyrazole-4-carboxamide], the IC50 against CpCDPK1 is 200 nM. For the compound `Cn1c(N)nc2cc(-c3nn(C(C)(C)C)c(N)c3C(N)=O)ccc21` [Compound 33, 5-amino-3-(2-amino-1-methyl-1H-benzo[d]imidazol-5-yl)-1-(tert-butyl)-1H-pyrazole-4-carboxamide], at CpCDPK1, the IC50 is 990 nM. On to `CCOc1ccc2cc(-c3nn(C(C)(C)C)c(N)c3C(N)=O)cnc2c1` [Compound 39, 5-amino-1-(tert-butyl)-3-(7-ethoxyquinolin-3-yl)-1H-pyrazole-4-carboxamide], for which the half-maximal inhibitory concentration (IC50) on ALK is above 10000 nM; against Erk2 it was above 10000 nM; against Src, above 10 µM. On CpCDPK1, `Cc1ccc2cc(-c3nn(C(C)(C)C)c(N)c3C(N)=O)cnc2c1` [Compound 1544, 5-amino-1-tert-butyl-3-(7-methylquinolin-3-yl)-1H-pyrazole-4-carboxamide] yielded an IC50 of 11 nM. At CpCDPK1, `CC(C)COc1ccc2cc(-c3nn(C(C)(C)C)c(N)c3C(N)=O)cnc2c1` [Compound 1588, 5-amino-1-(tert-butyl)-3-(7-isobutoxyquinolin-3-yl)-1H-pyrazole-4-carboxamide] displayed an IC50 of 52 nM. On to `CCOc1ccc2cc(-c3nn(C(C)CCO)c(N)c3C(N)=O)cnc2c1` (stereo not drawn) [Compound 1608, 5-amino-3-(7-ethoxyquinolin-3-yl)-1-(4-hydroxybutan-2-yl)-1H-pyrazole-4-carboxamide], for which the IC50 against CpCDPK1 turned out to be 5 nM. `NC(=O)c1c(-c2ccc3nc(OC4CCC4)ccc3c2)nn(C2CCC2)c1N` [Compound 1656, 5-amino-3-(2-cyclobutoxyquinolin-6-yl)-1-cyclobutyl-1H-pyrazole-4-carboxamide] returned an IC50 at CpCDPK1 of 3 nM. For the compound `NC(=O)c1c(-c2cnc3cc(OC4CCC4)ccc3c2)nn(C2CCC2)c1N` [Compound 1657, 5-amino-3-(7-cyclobutoxyquinolin-3-yl)-1-cyclobutyl-1H-pyrazole-4-carboxamide], the IC50 on CpCDPK1 came out at 5 nM.

The record behind these values is patent publication US9518026B2, “5-aminopyrazole-4-carboxamide inhibitors of CDPK1 from T. gondii and C. parvum” (UNIVERSITY OF WASHINGTON THROUGH ITS CENTER FOR …, priority 2013, dated 2016).
